Values of other authors, collected in US20030073069A1, “Drug rescue by redesign of ADMET/PK properties” (priority 2001, published 2003).

Experiments:
P450 [1] = test system: P450
P450 [2] = settings: induction of a P450

SMILES | No. of currently known drug interactions that involve the compound, Inhibition (P450 [1]) | No. of currently known drug interactions that involve the compound, Induction (P450 [2])
CO[C@H]1/C=C/O[C@@]2(C)Oc3c(C)c(O)c4c(O)c(c(/C=N/N5CCN(C)CC5)c(O)c4c3C2=O)NC(=O)/C(C)=C\C=C\[C@H](C)[C@H](O)[C@@H](C)[C@@H](O)[C@@H](C)[C@H](OC(C)=O)[C@@H]1C [rifampin] | 2 | 
CN(C)CCOc1ccc(/C(=C(/CCCl)c2ccccc2)c2ccccc2)cc1 [toremifene] |  | 3
